Source: US8546524B2, “Smoothened polypeptides and methods of use” (The United States of America, as represented by the …, priority 2006, dated 2013)

Experiment: Solubility / precipitation in medium (stated)

| Sequence | solubility |
| --- | --- |
| VWFVVLTYAWHTSFKAL [SMOi2-14] | poor solubility |
| WFVVLTYAWHTSFKAL [SMOi2-15] | poor solubility |
